The numbers were not newly measured in patent publication US11723874B2, “Delayed release deferiprone tablets and methods of using the same” (Chiesi Farmaceutici S.p.A., priority 2017, dated 2023), which cites them from elsewhere.

The subject of this data set is ALS.

Take `Nc1nc2ccc(OC(F)(F)F)cc2s1` [Riluzole]: the increase in survival was 2-3 months.
